Assay results published in patent publication US9695127B2, “Compounds for treating HIV and methods for using the compounds” (University of Pittsburgh—Of the Commonwealth System of …, priority 2012, dated 2017).

Amino acid sequences for entries named in this document (tags omitted). Chains listed by the source or under a name are the forms on record and can include a tag or linker. Residues count along the entry.
UniProt P08631, 78-522 with tags or gaps limits assumed: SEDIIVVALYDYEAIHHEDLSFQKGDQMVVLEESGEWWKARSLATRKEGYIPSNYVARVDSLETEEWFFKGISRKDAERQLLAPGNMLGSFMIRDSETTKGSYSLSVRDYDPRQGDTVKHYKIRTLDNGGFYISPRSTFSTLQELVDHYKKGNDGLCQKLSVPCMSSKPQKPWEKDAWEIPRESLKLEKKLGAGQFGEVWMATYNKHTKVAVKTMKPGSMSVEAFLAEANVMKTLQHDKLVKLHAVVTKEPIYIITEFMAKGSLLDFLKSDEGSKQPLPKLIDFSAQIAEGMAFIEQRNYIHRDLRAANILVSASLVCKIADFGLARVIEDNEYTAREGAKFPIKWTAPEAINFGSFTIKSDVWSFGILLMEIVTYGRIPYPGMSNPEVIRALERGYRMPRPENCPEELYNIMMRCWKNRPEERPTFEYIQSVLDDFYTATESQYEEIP

What was measured:
[1] = target: Hck (Homo sapiens, UniProt P08631, Q523E/Q524E/Q525I); assay: Z′-lyte in vitro kinase assay, Hck alone; format: biochemical; conditions: for Hck Alone % Inhib (20 μM): 20 μM compound; for IC50: read-out: Hck Alone IC50, 10-point concentration-response
[2] = Preliminary pharmacokinetics in C3H mice; conditions: p.o., 10 mg/kg

Row | Structure (SMILES) | Hck Alone % Inhib (20 μM) [1] [%] | IC50 [1] [µM] | % F (oral bioavailability) [2] [%]
1 | NC(=S)n1nc(-c2ccc([N+](=O)[O-])cc2)c(N=Nc2ccc(Cl)cc2)c1O | 49.7 | 20 | –
2 | O=C(c1cnn(C(=O)c2cccc(S(=O)(=O)N3CCOCC3)c2)c1)c1ccccc1O | 14.1 | > 20 | –
3 | Cc1nc2ccc3nc(NC(=O)c4ccc5c(c4)OCCO5)sc3c2s1 | 31.1 | > 20 | –
4 | COc1ccc(NC(=O)CN2C(=O)C(=C3SC(=S)N(C4CCS(=O)(=O)C4)C3=O)c3ccccc32)cc1 (stereo not drawn) | 26.9 | > 20 | –
5 | NC(=S)n1nc(-c2ccc([N+](=O)[O-])cc2)c(N=Nc2cccc(Cl)c2)c1O | – | – | 2
